Reference: ChEMBL document CHEMBL4431391, “Exploration of substituted arylpiperazine-tetrazoles as promising dual norepinephrine and dopamine reuptake inhibitors” (Bioorg Med Chem, 2016)

Amino acid sequences for entries named in this document (tags omitted).
UniProt P23975, whole entry: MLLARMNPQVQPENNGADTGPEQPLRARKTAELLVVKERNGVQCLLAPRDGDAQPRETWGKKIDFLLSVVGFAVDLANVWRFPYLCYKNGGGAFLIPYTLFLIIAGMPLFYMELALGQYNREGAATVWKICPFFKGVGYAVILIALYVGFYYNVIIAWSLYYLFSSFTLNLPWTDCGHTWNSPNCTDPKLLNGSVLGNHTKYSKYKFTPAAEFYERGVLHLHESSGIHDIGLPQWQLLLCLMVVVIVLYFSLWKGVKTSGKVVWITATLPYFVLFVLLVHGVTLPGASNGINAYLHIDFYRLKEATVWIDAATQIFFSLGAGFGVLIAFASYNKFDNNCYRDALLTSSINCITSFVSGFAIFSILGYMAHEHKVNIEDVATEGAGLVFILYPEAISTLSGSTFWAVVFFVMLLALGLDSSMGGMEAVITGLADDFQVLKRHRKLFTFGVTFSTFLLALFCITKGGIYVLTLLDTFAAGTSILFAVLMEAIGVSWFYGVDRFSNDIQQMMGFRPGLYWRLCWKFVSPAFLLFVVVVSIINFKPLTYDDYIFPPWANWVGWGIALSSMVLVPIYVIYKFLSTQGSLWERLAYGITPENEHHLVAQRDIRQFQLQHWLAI

Molecular target: Sodium-dependent noradrenaline transporter (Homo sapiens, UniProt P23975)
Assay: Inhibition of [3H]-5-norepinephrine reuptake in human NET expressed in HEK293 cells by liquid scintillation counting method
Format: cell-based
Summary of the method: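 HEK-293 cells grown in FBS-supplemented medium, transfected with human transporter (hDAT or hNET). Uptake of radiolabeled substrate ([3H]-DA for DAT, [3H]-NE for NET) at 20 nM was measured, with inhibition assessed as reduced uptake. Method adapted with slight modification from a literature procedure.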

CC(NC(C)(C)C)C(=O)c1cccc(Cl)c1 (stereo unspecified) [BUPROPION]
IC50: 3.24 µM
